Ab-14 light chain CDR variants: yeast mating affinities

Source: Engelhart et al. 2022 (doi:10.1038/s41597-022-01779-4), MIT Lincoln Laboratory and A-Alpha Bio; data file from the FLAb repository.

All variants were tested on one target, the spike HR2 peptide PDVDLGDISGINAS (SARS-CoV-2).

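Phage display of a naive human antibody library on the peptide gave the parent. In library AAYL50, one, two or three CDR residues were substituted; doubles and triples were drawn at random. AlphaSeq pools MATa yeast showing the antibodies with MATalpha yeast showing the peptide. Mating (16 h, 30 °C) was followed by selection of diploids and sequencing of their barcodes. A regression on co-assayed BCL2-family reference pairs converts the normalised counts of each replicate to an apparent Kd. Mating was done three times.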

The variants keep the heavy chain, the linker and the frameworks of Ab-14 (scFv order VH, a 15-residue (Gly4Ser)3 linker, VL).
VH: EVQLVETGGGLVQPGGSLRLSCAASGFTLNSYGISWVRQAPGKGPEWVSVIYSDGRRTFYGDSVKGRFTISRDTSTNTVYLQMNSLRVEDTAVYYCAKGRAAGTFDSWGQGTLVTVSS
VL: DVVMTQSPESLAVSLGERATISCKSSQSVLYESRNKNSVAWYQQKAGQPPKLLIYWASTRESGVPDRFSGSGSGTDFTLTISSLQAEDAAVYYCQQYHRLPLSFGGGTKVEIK

Positions count from residue 1 of the parent VL; S26P puts P in place of S.
Values are apparent Kd, the geometric mean of the replicates that gave a signal; lower means stronger binding.
A pair that was not seen in any replicate is written "nd"; this usually means weak binding, but a binder can also be missed.

changes	Kd	seen in	control signals
S26P/S33I/S38E	1.8 µM	2/3	0/9
S25M/S38Y/Y97S	nd	0/3	0/9
A57Q/T59S/R60T	350 µM	1/3	1/9
S38D/E61W/P101V	2.3 µM	3/3	2/9
S28W/K36M/S38G	970 nM	2/3	1/9
E61N/L100V/S103D	4.2 µM	1/3	1/9
Y31A/R34L/N37P	360 nM	3/3	6/9
S26V/Y97N/H98L	600 nM	3/3	0/9
V29F/Y97M/L100Y	nd	0/3	0/9
N37W/R99V	1.6 µM	3/3	4/9
S33M/S38W/L102G	990 nM	1/3	0/9
S33W/N37S/V39D	11 µM	1/3	3/9
Y97F/L100Y/L102C	nd	0/3	0/9
N35R/N37F/S58A	4.8 µM	2/3	1/9
N35A/E61N/S62V	18 nM	3/3	1/9
Q27M/A57L/L102Y	nd	0/3	2/9
E32Q/L100V/P101V	39 nM	3/3	3/9
Q95S/Q96V	nd	0/3	1/9
V29G/S58N/E61C	2.9 nM	3/3	2/9
S25V/S28A/S38Q	2.0 nM	3/3	2/9
Q27K/E32V/S33H	13 nM	3/3	1/9
S62M/L102I/S103R	61 nM	3/3	1/9
K24G/E61Y/S103F	2.9 µM	2/3	0/9

Second part, the sequence after the result:

Kd	seen in	control signals	changes
5.8 nM	3/3	1/9	K24R/S28D
44 nM	3/3	0/9	V29F/S38T/W56C
nd	0/3	0/9	N37D/Y97L/P101L
600 nM	3/3	3/9	Q27H/N37W/S58R
150 µM	2/3	0/9	S28V/V29P/A57C
22 µM	2/3	1/9	S33L/L102G
570 nM	3/3	1/9	R34F/N37P/Q96M
5.1 µM	1/3	3/9	Q27N/S62C/P101E
nd	0/3	1/9	V39G/Q95A/S103N
nd	0/3	0/9	L30V/Y31D/S103T
8.1 nM	3/3	1/9	R34S/Q95G
nd	0/3	0/9	A40S/Q96P/H98Q
70 nM	3/3	0/9	N35D/A57V/E61T
2.0 µM	1/3	2/9	K24S/S28C/R34F
440 nM	3/3	3/9	L30S/N35S/S58C
nd	0/3	0/9	S38W/A40I/H98Y
nd	0/3	1/9	N37D/E61P/Q96N
nd	0/3	0/9	Q96H/L100R/S103G
39 µM	1/3	0/9	S58P/R60E/H98V
nd	0/3	0/9	S38C/E61R/L102N
nd	0/3	0/9	Q27F/N37Q/L102E
nd	0/3	0/9	Q27L/S33G/Q95N
1.8 nM	3/3	2/9	W56Q/S58M/S103M
nd	0/3	0/9	S25V/S26Y/A57F

The first 7 entries again:

changes,Kd,seen in,control signals
S26P/S33I/S38E,1.8 µM,2/3,0/9
S25M/S38Y/Y97S,nd,0/3,0/9
A57Q/T59S/R60T,350 µM,1/3,1/9
S38D/E61W/P101V,2.3 µM,3/3,2/9
S28W/K36M/S38G,970 nM,2/3,1/9
E61N/L100V/S103D,4.2 µM,1/3,1/9
Y31A/R34L/N37P,360 nM,3/3,6/9

As a blank, each scFv also met three strains without target: over library AAYL50, 18% of these pairings were detected, typically at 15 µM and seldom below 970 nM. The control count says in how many pairings with the empty strains this scFv gave a signal.
Parent in this assay: reference entry 4.4 nM, copy in this library 48 nM.